# Reference: PubChem BioAssay AID651843 (National Center for Advancing Translational Sciences (NCATS), 2012)
# The entries are a selection whose mix differs from that of the whole data set. Inconclusive results are not listed. The source made the active and inactive calls. Calls follow the shape of the dose curve; as a rule, active = well fitted inhibition curve with a large enough effect; inconclusive = small, poorly fitted or top-dose-only effect; inactive = no such curve, though single readings can be large or run the other way.
# Assay: qHTS Assay for Inhibitors of MBNL1-poly(CUG) RNA binding: Counterscreen HTRF assay
# Details: His-Menin/biotin-MLL peptide TR-FRET counterscreen; at 19.2 µM (top of the series)
# Text: NIH Chemical Genomics Center [NCGC] NIH Molecular Libraries Probe Production Centers Network [MLPCN] MLPCN Grant: R03 MH087421-01 Assay Submitter (PI): Charles Thornton NCGC Assay Overview: Expanded CTG repeats in the 3' untranslated region of the DM protein kinase (DMPK) gene causes type I myotonic dystrophy (DM1). DM1 is a multi-systemic disease with a prevalence of 1/7000. Clinical features include myotonia, progressive muscle weakness and wasting, cardiac arrhythmia, insulin resistance, hypersomnolence, cataracts, and other symptoms. The pathogenic effect of expanded CTG repeats stems from deleterious effects of the mutant transcript. CUGexp mRNA accumulates in nuclear foci and sequesters proteins of the muscleblind family, of which MBNL1 is the most common family member in skeletal muscles. […] This brings the terbium label within close proximity to XL665 to allow time-resolved fluorescence resonance energy transfer (TR-FRET). […]
# This assay uses a ratiometric measurement of TR-FRET binding assay with His-Menin and Biotin-MLL peptide. […] (3) Add 1 ul of 0.22 ng/ul terbium labeled anti-His antibody (0.055 ng/ul final concentration) (4) Add 1 ul of 20 nM streptavidin-XL665 (5 nM final concentration) (5) Incubate 60 min at room temperature (6) Detect the assay plate in a EnVision plate reader (PerkinElmer) with Ex=340 nm, Em1=665 nm and Em2=545 nm.
smiles,measurement,value
C/C1=C2N=C(/C=C3N=C(/C(C)=C4\[N-][C@@](C)([C@@H]5N=C1[C@](C)(CCC(=O)NC[C@@H](C)OP(=O)([O-])O[C@H]1[C@@H](O)[C@@H](n6cnc7cc(C)c(C)cc76)O[C@@H]1CO)[C@H]5CC(N)=O)[C@@](C)(CC(N)=O)[C@@H]4CCC(N)=O)[C@@](C)(CC(N)=O)[C@@H]\3CCC(N)=O)C(C)(C)[C@@H]/2CCC(N)=O.[C-]#N.[Co+3],"activity, negative = inhibition",inactive: 28.3%
